# Literature values in patent US20230183323A1 (BROWN UNIVERSITY, priority 2020, published 2023).
# Sequences of proteins named here, by UniProt entry; tags and fusion partners are left off.
# UniProt P11802, whole entry, species assumed: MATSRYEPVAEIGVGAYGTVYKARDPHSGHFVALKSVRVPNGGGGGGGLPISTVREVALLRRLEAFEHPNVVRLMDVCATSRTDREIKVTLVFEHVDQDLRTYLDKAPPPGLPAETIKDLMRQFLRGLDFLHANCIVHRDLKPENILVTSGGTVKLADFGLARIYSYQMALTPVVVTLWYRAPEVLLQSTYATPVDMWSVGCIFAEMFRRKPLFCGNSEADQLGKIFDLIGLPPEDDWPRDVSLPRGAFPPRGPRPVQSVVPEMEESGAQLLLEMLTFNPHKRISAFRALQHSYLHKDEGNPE
# UniProt P06493, whole entry, species assumed: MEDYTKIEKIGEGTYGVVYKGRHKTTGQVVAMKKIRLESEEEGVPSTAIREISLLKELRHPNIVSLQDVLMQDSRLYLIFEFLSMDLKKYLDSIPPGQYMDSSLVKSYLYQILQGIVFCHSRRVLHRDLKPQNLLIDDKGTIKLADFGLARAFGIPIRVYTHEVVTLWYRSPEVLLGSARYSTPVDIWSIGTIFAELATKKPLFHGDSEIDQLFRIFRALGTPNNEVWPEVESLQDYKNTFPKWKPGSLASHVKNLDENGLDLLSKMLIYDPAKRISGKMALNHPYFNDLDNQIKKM
# Experiments:
# CDK4 = CDK4 (Homo sapiens, UniProt P11802); design: key to the marks not given beside the values; conditions: cited from earlier work
# CDK1 = CDK1 (Homo sapiens, UniProt P06493); design: key to the marks not given beside the values; conditions: cited from earlier work
compound,measurement,setting,value
COc1ccc2c(c1)/C(=C/c1cnc[nH]1)C(=O)N2,Inhibitory potency CDK4,CDK4,++
same,Inhibitory potency CDK1,CDK1,+++
